Here are results for 58 compounds from PubChem BioAssay AID504326 (The Scripps Research Institute Molecular Screening Center, 2011).

Sequences of proteins named here, by UniProt entry; tags and fusion partners are left off.
UniProt P35372, whole entry, looked up: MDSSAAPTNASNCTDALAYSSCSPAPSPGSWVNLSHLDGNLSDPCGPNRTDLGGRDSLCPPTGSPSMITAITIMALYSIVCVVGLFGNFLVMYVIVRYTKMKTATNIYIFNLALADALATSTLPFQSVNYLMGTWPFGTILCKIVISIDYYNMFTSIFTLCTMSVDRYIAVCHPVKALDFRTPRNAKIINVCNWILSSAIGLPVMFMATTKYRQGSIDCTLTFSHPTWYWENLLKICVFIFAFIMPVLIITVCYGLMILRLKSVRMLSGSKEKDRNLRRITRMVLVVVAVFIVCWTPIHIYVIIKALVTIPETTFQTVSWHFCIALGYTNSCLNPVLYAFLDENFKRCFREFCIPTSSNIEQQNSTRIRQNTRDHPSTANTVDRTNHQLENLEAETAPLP
UniProt P41143, whole entry, looked up: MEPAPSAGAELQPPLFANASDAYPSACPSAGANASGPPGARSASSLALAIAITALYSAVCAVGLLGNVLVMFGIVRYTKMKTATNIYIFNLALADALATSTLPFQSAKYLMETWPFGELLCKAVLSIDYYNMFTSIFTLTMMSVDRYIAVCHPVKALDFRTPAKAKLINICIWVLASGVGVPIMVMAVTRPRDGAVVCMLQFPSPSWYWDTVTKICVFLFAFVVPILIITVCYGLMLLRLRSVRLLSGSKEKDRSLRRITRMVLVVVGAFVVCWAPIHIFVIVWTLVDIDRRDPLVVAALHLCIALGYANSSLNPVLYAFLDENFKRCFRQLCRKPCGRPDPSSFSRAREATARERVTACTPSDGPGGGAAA

This is a selection; strong and weak results do not stand in their true shares. Calls of active or inactive are those of the source. No stated cut-off is given here; in the data, active means activation above about 18%; inactive means the rest.

The target of this experiment is Mu-type opioid receptor (Homo sapiens) + Delta-type opioid receptor (Homo sapiens) (UniProt P35372+P41143). The experiment can be described thus: inducers of mu-delta opioid receptor heterodimers – cell-based, luminescence, primary screen (AID 504326).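 Further: 0% = vehicle-treated cells and 100% = reference agonist.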 To be noted: cells, OPRM1-OPRD1 heterodimerization, at 9.3 µM, stronger effect = higher value.
With `O=C(CCCCCNC(=O)N1CCn2c1nc1ccccc12)NCc1ccc(F)cc1`, the activation was inactive: -1.21%.

With `Cc1ccc2c(c1)C1CN(C)CCC1N2C(=O)c1cccc(S(=O)(=O)N(C)C)c1` (stereo not drawn), the activation was inactive: -2.12%. The same measure for `CC(C)N(C(=O)Cn1c(SCC(=O)Nc2nccs2)nc2ccccc21)C(C)C`: inactive: -1.05%; for `CSc1nc(N)nc2c1ncn2CC(=O)NCC(c1ccccc1)c1ccccc1`: inactive: -2.43%. Turning to `Cc1ccc2c(c1)C1CN(C)CCC1N2S(=O)(=O)c1ccccc1` (stereo not drawn), the activation is inactive: 0.09%. With `CC(C)[C@H](NC(=O)N1CCn2c1nc1ccccc12)C(=O)NCCc1ccccc1` the figure was inactive: -1.6%; with `CN1CCC(N(C)c2ccc(C(N)=O)cc2[N+](=O)[O-])CC1`, inactive: -0.53%; with `O=C(OC1CN2CCC1CC2)c1ccccc1` (stereo not drawn), inactive: -4.08%. The same measure for `CC(O)CNc1nc2ccccc2n1CC(=O)NC12CC3CC(CC(C3)C1)C2` (stereo not drawn): inactive: 1.56%; for `CC1CN(CCn2cnc3c(N)ncnc32)CC(C)O1` (stereo not drawn): inactive: -3.07%; for `CCC(=O)N1C2C3N(C(=O)CC)C1C1N(C(=O)CC)C(C(N1C(=O)CC)N3C(=O)CC)N2C(=O)CC`: inactive: 1.13%.

Regarding `Clc1ccc(N2CCN(Cc3c[nH]c4ncccc34)CC2)cc1`, the activation was inactive: 1.33%. The same measure for `Cc1ccc2c(c1)C1CN(C)CCC1N2C(=S)NC(=O)c1ccc(Cl)cc1Cl` (stereo not drawn): inactive: -3.56%; for `O=C(Cn1c(=O)n(CC(=O)NCc2ccccc2)c2ccccc21)NCc1ccccc1`: inactive: -0.54%. With `CC(/C=N\NC(=O)Cn1c(C)nc2ccccc21)=C\c1ccccc1` the figure was inactive: 0.41%; with `CCCC(=O)Nc1ccc2c(c1)nc1n2CCN(CCOC)C1`, inactive: -4.4%. With `Cc1ccc(C)c(Cn2c(=O)c3c(nc4n3CCN4Cc3ccco3)n(C)c2=O)c1` the figure was inactive: -2.8%; with `CCOC(=O)CSc1nc2ccccc2n1CC(=O)N(C(C)C)C(C)C`, inactive: -3.29%.

As to `O=S(=O)(c1ccccc1)N1CCn2c(nc3ccccc32)C1`, the activation was inactive: 0.29%. Take `Cn1c(=O)c2c(ncn2CC(=O)N2CCN(C(=O)c3ccco3)CC2)n(C)c1=O`: the activation is inactive: -4.41%.

In the case of `O=C1NCN(c2ccccc2)C12CCNCC2`, the activation is inactive: 0.77%. With `COc1ccc(NS(=O)(=O)c2cc(NC(=O)Cn3cnc4c3c(=O)n(C)c(=O)n4C)ccc2C)cc1` the figure was inactive: -2.28%; with `Cn1c(=O)c2c(ncn2CCNC2=NCCCCC2)n(C)c1=O`, inactive: -2.21%; with `CC(C)NC(=O)Cn1c(SCC(=O)N2c3ccccc3CC2C)nc2ccccc21` (stereo not drawn), inactive: -2%. Consider `O=P1(N(CCCl)CCCl)OCCC2CCCCN21` (stereo not drawn), for which the activation is inactive: -1.8%. As for `O=C(c1ccc(Cl)cc1)N1CCn2c1nc1ccccc12`, the activation is inactive: -2.19%. `O=C(Cn1cnc2c(NCc3ccccc3)ncnc21)NCc1ccc2[nH]ccc2c1`: the activation is inactive: -0.68%. With `Cc1ccc(CN2C(=O)c3ccccc3NC23CCN(Cc2ccccc2)CC3)cc1` the figure was inactive: 2.58%; with `CCCS(=O)(=O)N1CCn2c(nc3ccccc32)C1`, inactive: -0.63%.

In the case of `CC(=O)NC(C)c1nc2ccccc2n1CC(=O)N1C(C)CCCC1C` (stereo not drawn), the activation was inactive: -3.13%. For the compound `O=C(Nc1nc2ccccc2n1CCN1CCCCC1)c1ccco1`, the activation is inactive: 0.22%.

As for `O=C(Cn1c(-c2cscn2)nc2ccccc21)Nc1ccccc1F`, the activation is inactive: -2.68%. The same measure for `CCC(=O)Nc1cccc(C(=O)/C=C/c2cc(Br)ccc2OC)c1`: inactive: -0.26%.

Consider `O=S(=O)(c1ccccc1)c1nnn2c1nc(NC1CCN(Cc3ccccc3)CC1)c1ccccc12`, for which the activation was inactive: -0.99%.

On to `COc1ccccc1C(=O)Nc1ccc2c(c1)nc1n2CCN(C2CCCCC2)C1`, for which the activation is inactive: -2.56%.

Turning to `O=C(Cn1cnc2c(NCc3ccccc3)ncnc21)N1CCN(c2ccccn2)CC1`, the activation was inactive: -2.95%. `O=C(Nc1nc2ccccc2n1CCN1CCCCC1)C1CCCCC1`: the activation is inactive: -2.71%. With `CC1Cc2ccccc2N1C(=O)Cn1cnc2c1c(=O)n(C)c(=O)n2C` (stereo not drawn) the figure was inactive: -2.33%; with `CC(NC(=O)CCNC(=O)N1CCn2c1nc1ccccc12)c1ccccc1` (stereo not drawn), inactive: -1.56%. As to `Cc1ccc(-c2csc(NCCn3c(C(F)(F)F)nc4ccccc43)n2)cc1`, the activation was inactive: -0.03%.

`Cn1c(=O)c2c(nc(CN3CCN(C(=O)c4ccco4)CC3)n2CC(N)=O)n(C)c1=O`: the activation was inactive: -0.69%. The same measure for `CC(O)CNc1nc2ccccc2n1CC(=O)NCCc1ccc(Cl)cc1` (stereo not drawn): inactive: -1.47%; for `O=C(NC1CCS(=O)(=O)C1)NP(=S)(Oc1ccccc1)Oc1ccccc1` (stereo not drawn): inactive: 1.65%. As to `COc1cccc(NC(=O)[C@H](C)NC(=O)N2CCn3c2nc2ccccc23)c1`, the activation was inactive: -2.74%.

As to `CCNC(=S)/N=C(\N)N[N+](=O)[O-]`, the activation was inactive: -1.19%. In the case of `COc1cc(/C=N/NC(=O)Cn2cnc3c2c(=O)n(C)c(=O)n3C)ccc1O`, the activation was inactive: -0.18%. Take `CCSc1nc2ccccc2n1CC(=O)N1CCOCC1`: the activation is inactive: 0.48%.

On to `Cc1nc2ccccc2n1C1CC(=O)N(Cc2ccccc2)C1=O` (stereo not drawn), for which the activation is inactive: 2.17%. As to `CC(c1ccccc1)N1CCn2c(nc3cc(NS(C)(=O)=O)ccc32)C1` (stereo not drawn), the activation was inactive: -3.41%. With `S=C(Nc1ccccc1)N1CCn2c1nc1ccccc12` the figure was inactive: -1.65%; with `c1ccc(CN2CCN(CCN3CCn4c3nc3ccccc34)CC2)cc1`, inactive: -1.52%. With `O=C(Cn1c(-c2ccco2)nc2ccccc21)N1CCCCC1` the figure was inactive: -1.61%.

In the case of `Cn1c(=O)c2ncn(CC(=O)Nc3ccc(N4CCOCC4)cc3)c2n(C)c1=O`, the activation is inactive: 0.44%. The same measure for `CCOC(=O)C1CCCN(C(=O)Cn2cnc3c2c(=O)n(C)c(=O)n3C)C1` (stereo not drawn): inactive: -1.3%. With `O=C(C1CCCN1S(=O)(=O)c1cccc2cccnc12)N1CCn2c1nc1ccccc12` (stereo not drawn) the figure was inactive: 3.32%. With `Cc1ccc(Cn2c(=O)c3c(nc4n3CCN4Cc3ccco3)n(C)c2=O)cc1` the figure was inactive: -0.09%. Consider `Cc1nc2cc(C(F)(F)F)ccc2n1CCNc1nc(-c2cc(Cl)c(N)c(Cl)c2)cs1`, for which the activation is inactive: -0.99%. The same measure for `CC(C)(C)C(=O)N1CCn2c1nc1ccccc12`: inactive: -3.12%.
